Results reported in patent US10919896B2, “Preparation and uses of pyrimidinone derivatives” (Cancer Research Technology Limited, priority 2016, dated 2021).

Sequences of proteins named here, by UniProt entry; tags and fusion partners are left off.
UniProt O00311, whole entry: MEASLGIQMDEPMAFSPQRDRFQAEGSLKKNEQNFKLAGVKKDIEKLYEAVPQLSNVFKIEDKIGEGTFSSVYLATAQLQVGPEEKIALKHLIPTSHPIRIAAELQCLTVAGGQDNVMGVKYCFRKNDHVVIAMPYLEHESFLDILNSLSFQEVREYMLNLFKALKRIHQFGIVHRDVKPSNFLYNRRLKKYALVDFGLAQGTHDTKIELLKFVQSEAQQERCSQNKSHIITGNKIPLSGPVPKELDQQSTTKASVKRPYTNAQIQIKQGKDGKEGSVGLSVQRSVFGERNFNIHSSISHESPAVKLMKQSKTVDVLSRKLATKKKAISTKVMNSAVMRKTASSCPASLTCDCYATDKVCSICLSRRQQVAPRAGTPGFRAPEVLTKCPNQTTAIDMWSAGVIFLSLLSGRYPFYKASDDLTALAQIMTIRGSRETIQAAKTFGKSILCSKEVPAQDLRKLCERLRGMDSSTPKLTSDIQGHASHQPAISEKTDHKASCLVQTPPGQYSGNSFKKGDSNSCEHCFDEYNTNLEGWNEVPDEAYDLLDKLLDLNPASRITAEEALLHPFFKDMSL
UniProt Q9UBU7, whole entry partner: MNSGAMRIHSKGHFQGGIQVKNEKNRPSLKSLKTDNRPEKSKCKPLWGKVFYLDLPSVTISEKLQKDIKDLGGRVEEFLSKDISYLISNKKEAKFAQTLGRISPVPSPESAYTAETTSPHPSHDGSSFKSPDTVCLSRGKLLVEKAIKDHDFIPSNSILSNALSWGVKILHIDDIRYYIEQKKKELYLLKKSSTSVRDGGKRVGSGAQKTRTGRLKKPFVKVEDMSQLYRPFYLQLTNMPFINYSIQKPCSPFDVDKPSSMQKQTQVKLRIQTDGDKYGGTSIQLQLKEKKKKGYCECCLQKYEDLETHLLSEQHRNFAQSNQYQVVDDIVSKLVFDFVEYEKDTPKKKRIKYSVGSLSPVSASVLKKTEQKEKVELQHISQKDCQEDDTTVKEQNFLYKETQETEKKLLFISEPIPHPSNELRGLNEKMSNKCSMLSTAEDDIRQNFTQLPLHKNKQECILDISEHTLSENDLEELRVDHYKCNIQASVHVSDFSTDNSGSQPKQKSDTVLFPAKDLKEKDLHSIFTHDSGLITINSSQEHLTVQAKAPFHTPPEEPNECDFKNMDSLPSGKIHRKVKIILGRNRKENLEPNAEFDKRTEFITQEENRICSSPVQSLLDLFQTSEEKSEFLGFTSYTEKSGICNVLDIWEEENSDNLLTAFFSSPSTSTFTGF

How the values were obtained:
[1] = target: Cdc7/ASK (Homo sapiens, UniProt O00311); test: Cdc7 Biochemical Assay Method 1: 384 well ELISA, whole protein substrate MCM2, antibody against Phospho MCM2 (S53); conditions: 2 μM ATP
Description: This protocol describes a method for assaying Cdc7/ASK for activity. The assay is a 384 well ELISA assay, utilising a whole protein substrate (MCM2) and an antibody against Phospho MCM2 (S53). This site is thought to be specific to Cdc7/ASK phosphorylation and the assay has been validated using knockout mutants. Reagents • TBS: 25 mM Tris pH 7.2, 150 mM NaCl. (Dilute 10× stock by 1:10). • Wash Buffer: TBS+0.05% Tween 20. (Add 100 mL 1 M Tris pH 7.2, 120 mL 5 M NaCl and 2 mL 100% Tween 20 per 4 L). • Kinase Reaction Buffer: 50 mM Tris-HCl pH 8.5, 10 mM MgCl2, 1 mM DTT. […] Stop the reaction by adding 20 μL Stop Solution to all wells and record Absorbance on a Pherastar plate reader. […] Z' factors were determined for each plate tested and were all above 0.5. […]

[2] = test system: Cdc7 (pS53MCM2 levels in HCT116 cells); test: Cdc7 Cell Pharmacodynamics Assay Method 1: pS53MCM2 levels in HCT116 cells, 6 hours
From the text: This protocol describes a method to investigate the inhibition of Cdc7 activity of compounds by measuring pS53MCM2 levels in cells after treatment. […]

Biochemical Method 1 (pIC50) [1]: 8.66
Biomarker Method 1 (pEC50) [2]: 5.88
Compound: O=c1[nH]c(-c2ccncc2)nc(C2CCN(CC(F)(F)F)CC2)c1Cl
